{"source": "ChEMBL document CHEMBL5376018", "about": "(RSC Med Chem, 2024)", "test_system": "rhinovirus B14", "experiment": "Antiviral activity against Human rhinovirus 14 infected in HeLa H1 cells at 1 MOI assessed as inhibition of cell cycle by measuring viral titre at 0.5 uM upto 6 hrs by MTT assay", "type": "functional, organism-based", "note": "Calls of active or inactive are those of the source. The calls are words filed in the database; no cut-off is given here."}
{"compound": "CCOC(=O)/C=C/[C@H](C[C@@H]1CCNC1=O)NC(=O)[C@@H](CC(=O)[C@@H](NC(=O)c1cc(C)on1)C(C)C)Cc1ccc(F)cc1", "values": [{"measurement": "Activity", "value": "Active"}]}
